Test system: S. aureus MRSA US300
Details: 2x or 4x MIC, CAMHB media

SMILES	reduction in bacteria levels (in 24 hours)	time for a similar (greater than 5 log) reduction in bacteria levels
CC(=O)NC[C@H]1CN(c2ccc(N3CCOCC3)c(F)c2)C(=O)O1 [linezolid]	about a log reduction	
CN[C@H](CC(C)C)C(=O)N[C@H]1C(=O)N[C@@H](CC(N)=O)C(=O)N[C@H]2C(=O)N[C@H]3C(=O)N[C@H](C(=O)N[C@H](C(=O)O)c4cc(O)cc(O)c4-c4cc3ccc4O)[C@H](O)c3ccc(c(Cl)c3)Oc3cc2cc(c3O[C@@H]2O[C@H](CO)[C@@H](O)[C@H](O)[C@H]2O[C@H]2C[C@](C)(N)[C@H](O)[C@H](C)O2)Oc2ccc(cc2Cl)[C@H]1O [Vancomycin, vancomycin]		24 hours

Reference: patent US10875895B2, “Antibacterial cell-penetrating peptides” (Purdue Research Foundation, priority 2018, dated 2020)
